## Antibody variant affinities, Ab-14 heavy chain, assay B

The measurements come from Li et al. 2023 (doi:10.1038/s41467-023-39022-2) through the FLAb antibody collection.

Target peptide (SARS-CoV-2 spike, HR2 region): PDVDLGDISGINAS

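The variants were designed computationally from a first round of random CDR variants and then made and measured. Several design methods are mixed in this list. The assay is AlphaSeq: two haploid yeast populations carry antibody and antigen on their surface. The frequency of each diploid, read from paired DNA barcodes, reflects how well the two displayed proteins bind. The ratio of observed to expected reads was calibrated, replicate by replicate, on BCL2-family standards whose Kd was known from biolayer interferometry. Each pool was mated in six replicate cultures.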

The variants keep the light chain, the linker and the frameworks of Ab-14 (scFv order VH, the linker GGGGSGGGGSGGGGS, VL).
VH: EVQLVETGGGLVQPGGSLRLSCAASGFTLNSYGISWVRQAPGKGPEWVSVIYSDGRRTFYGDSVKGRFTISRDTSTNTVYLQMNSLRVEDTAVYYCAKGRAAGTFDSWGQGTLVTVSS
VL: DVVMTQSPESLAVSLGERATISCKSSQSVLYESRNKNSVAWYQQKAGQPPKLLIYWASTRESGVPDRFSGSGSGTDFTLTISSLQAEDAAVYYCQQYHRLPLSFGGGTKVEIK

Each variant is given by its three heavy chain CDRs, as the data file delimits them; those of the parent are GFTLNSYGIS, VIYSDGRRTFYGDSVK, GRAAGTFDS.
This list holds designs with at most six substitutions.
Each Kd is an estimate from the mating assay, the geometric mean of the replicates in which the pair was seen; lower is stronger.
"no signal" marks a missing value. The strain was present, yet no cells mated with the target were sequenced in any replicate, which points to weak or no binding.

* GFTLNSYGIS, VIYADGKRTFYGDSVK, DRAAGTFDH -> no signal (0 of 6 replicates)
* GFTLNSYGIS, VIYSDGRRTFYGDSVK, GRNAGQFDS -> no signal (0 of 6 replicates)
* GFNLNEYGIS, VIYSDGRRTFYGDSVK, GRAAGTFIS -> no signal (0 of 6 replicates)
* GFNLNSYGIS, VIYSDGRRTFYGDNVK, GMQAGTFDS -> 8.6 nM (6 of 6 replicates)
* GFNLNSYGIS, VIYSDGHRTFYGDAVK, GRASGTFSS -> 740 pM (4 of 6 replicates)
* GFTLNSYGIS, VIYSDGRRTHYGDSVK, GRAALTFDT -> no signal (0 of 6 replicates)
* GFTLNSYGIS, VIYADGRRTFYGDSVK, GRMAGTFKI -> no signal (0 of 6 replicates)
* GFDLNEYGIS, VIYADGRRTAYADSVK, GKAAGTFDS -> 460 pM (6 of 6 replicates)
* GFKLNSYGIS, VIYSDGRRTFYADSVK, GKVAGTFDS -> 7.5 nM (2 of 6 replicates)
* GFWLNEYGIS, VIYSDGRRTFYGDSVK, GRAAGTFDS -> 22 nM (5 of 6 replicates)
* GFTLNSYGIS, VIYSDGRRTFYGDSVK, GQAAGIFDS -> 110 nM (3 of 6 replicates)
* GFTLEDYGIS, VIYSDGRRTFYTDSVK, RRAAGTFDS -> no signal (0 of 6 replicates)
* MFDLNSYGIS, VIYSDGRRTFYGDSVK, GKTAGTFDS -> 17 nM (6 of 6 replicates)
* GFTLNSYGIS, VIYSDGRRTFYGDSVK, GEFAGTFDS -> no signal (0 of 6 replicates)
* GFDLRSYGIS, VIYSDGWRTAYGDSVR, GRAAGTFDS -> no signal (0 of 6 replicates)
* GFLLNSYGIS, VIYSDGRRTFYGDSVK, GRAAGWFNS -> no signal (0 of 6 replicates)
* GFTLNDYGIS, VIYSDGRRTFYGDSVK, GRTAGTFDS -> 2.2 nM (12 of 12 replicates)
* GFTLMSYGIS, VISSDGRRTFYGDDVK, GWAAGTFPS -> no signal (0 of 6 replicates)
* GFDLNEYGIS, VIYADGRRTFYADSVK, GQLAGTFDS -> 150 pM (6 of 6 replicates)
* GFTLQSYGIS, VIYSDGRRTSYGDSVK, GDAADTFDS -> no signal (0 of 6 replicates)
* GFQLNDYGIS, VIYSDGRRTFYGDSVK, GRAAGTFTS -> 73 nM (4 of 6 replicates)
* GFTLNSYGIS, VIYSDGRRTFYGDSVK, GQQAGTFDS -> 53 nM (3 of 6 replicates)
* GFELNQYGIS, VIYSDGRRTFYSDSVK, GQDAGTFDS -> 5.1 nM (6 of 6 replicates)
* GFELNSYGIS, VIYADGRRTFYGDSVK, GQAAGTFDT -> 280 pM (6 of 6 replicates)
* GFMLNSKGIS, VIYADSRRTFYGDSVK, GRAAGTNTS -> no signal (0 of 6 replicates)
* GFSLNSYGIS, VIYADGRRTFYGDSVK, GNAAGTFDS -> 1.2 nM (6 of 6 replicates)
* GFTNNSYGIS, VIYSDGERTFYGDSVV, GRAAGTFDS -> no signal (0 of 6 replicates)
* GFTLNSYGIS, VIYSDGMRLFYGDSVK, GRAAGTFDQ -> no signal (0 of 6 replicates)
* GFTLNSYGIS, VIYSDGRRTFYGDSVD, GLAGGTFDV -> no signal (0 of 6 replicates)
* GFTGNSYGIS, VIYSDGRRTFYDDSVK, GQLAGTFDS -> no signal (0 of 6 replicates)
* GTTINQYGIS, VIYSDGRRTNYGDSVK, GRQTGTFDS -> no signal (0 of 6 replicates)
* GFTLNEYGIP, VIYSDGRRTFYDDSVK, GRVAGTFDS -> 450 pM (6 of 6 replicates)
* GFDLNSYGIS, VIYSDGRRTFYGDSVK, GRAAGQFMS -> no signal (0 of 6 replicates)
* GFYLNEYGIS, VIYSDGRRTFYGDSVK, GRTAGTFDK -> no signal (0 of 6 replicates)
* GFTFNEYGVS, VIYSDGRRTFYGDSVK, GRGAGTFDS -> no signal (0 of 6 replicates)
* GFDLNEYGIS, VIYADGRRTVYADSVK, GEAAGTFDS -> 730 pM (6 of 6 replicates)
* GFSLNSYGIS, VIYSDGRRTFYDDKVK, GRTAGTFDS -> 2.7 nM (6 of 6 replicates)
* GFTLNDYGIS, VIYSDGRRTFYGDSVK, GAAAGTFDS -> 160 nM (6 of 6 replicates)
* GFTLNEYGIS, VIYSDGRRTFYTDSVK, GRLAGTFDE -> 2.0 nM (6 of 6 replicates)
* GFTLKSYGIS, VIYSDGMRTFYSDSVK, GRYAGTFDS -> 53 nM (3 of 6 replicates)
* PFDLNSYGIS, VIYSDGRRTFYQDSVK, GEAAGTFDS -> 240 nM (3 of 6 replicates)
* GFTLNDYGIM, VIYQDGRRTQYIDKVK, GRAAGTFDS -> no signal (0 of 6 replicates)
* GFTLNSYGIS, VMYSDGRRTFYADSVK, AEGAGTFVS -> no signal (0 of 6 replicates)
* GFTLNSYGIS, VIYSDGRRTFYDDSVK, GQLAGHFYS -> no signal (0 of 6 replicates)
* HFGLNEYGIS, VIYSDGRRTFYHDSVK, GRTAGTFDS -> 1.9 nM (6 of 6 replicates)

7 of these entries, quoted again:

CDR-H1,CDR-H2,CDR-H3,Kd (apparent),detected
GFTLNSYGIS,VIYSDGMRLFYGDSVK,GRAAGTFDQ,no signal,0/6
GFNLNSYGIS,VIYSDGHRTFYGDAVK,GRASGTFSS,740 pM,4/6
GFTLNEYGIS,VIYSDGRRTFYTDSVK,GRLAGTFDE,2.0 nM,6/6
GTTINQYGIS,VIYSDGRRTNYGDSVK,GRQTGTFDS,no signal,0/6
GFDLRSYGIS,VIYSDGWRTAYGDSVR,GRAAGTFDS,no signal,0/6
GFQLNDYGIS,VIYSDGRRTFYGDSVK,GRAAGTFTS,73 nM,4/6
GFTLNSYGIS,VIYADGKRTFYGDSVK,DRAAGTFDH,no signal,0/6

Nonspecific signal, from three strains lacking the peptide, appeared in 1% of pairings of all heavy chain designs, centred on 120 nM (5% of these signals below 7.0 nM); values are not corrected for it.
A sequence that the file lists under several names has all its replicates pooled.
In the paper, a design with two or fewer of six values counts as a poor binder.
The range of this assay differs from that of the first round, and the authors advise against merging the two.